PubChem BioAssay (NCI)
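A five-concentration, 48-hour dose response in 96-well plates underlies each endpoint, interpolated linearly between surrounding concentrations. At the GI50, growth is halved. TGI denotes the concentration required for complete inhibition of growth.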

What was measured:
Assay in all cases: NCI-60 cell line screen, 48 h
[1] = tested on: SR leukemia
[2] = tested on: OVCAR-5 ovarian
[3] = tested on: SK-MEL-2 melanoma
[4] = tested on: ACHN renal
[5] = tested on: T-47D breast
[6] = tested on: SF-268 CNS
[7] = tested on: LOX IMVI melanoma
[8] = tested on: CAKI-1 renal
[9] = tested on: BT-549 breast
[10] = tested on: HCC-2998 colon
[11] = tested on: SK-MEL-28 melanoma
[12] = tested on: 786-0 renal
[13] = tested on: M14 melanoma
[14] = tested on: DU-145 prostate
[15] = tested on: SNB-19 CNS
[16] = tested on: MCF7 breast
[17] = tested on: HT29 colon
[18] = tested on: SK-OV-3 ovarian
[19] = tested on: UACC-62 melanoma
[20] = tested on: HL-60(TB) leukemia
[21] = tested on: HOP-62 NSCLC
[22] = tested on: MALME-3M melanoma
[23] = tested on: SNB-75 CNS
[24] = tested on: HS 578T breast
[25] = tested on: UACC-257 melanoma
[26] = tested on: RPMI-8226 leukemia
[27] = tested on: RXF 393 renal
[28] = tested on: MDA-MB-231 breast
[29] = tested on: HCT-15 colon
[30] = tested on: MOLT-4 leukemia
[31] = tested on: KM12 colon
[32] = tested on: SK-MEL-5 melanoma
[33] = tested on: MDA-MB-435
[34] = tested on: HCT-116 colon
[35] = tested on: UO-31 renal
[36] = tested on: PC-3 prostate
[37] = tested on: NCI-H522 lung
[38] = tested on: SF-539 CNS
[39] = tested on: SW-620 colon
[40] = tested on: MDA-N
[41] = tested on: TK-10 renal
[42] = tested on: NCI-H226 lung
[43] = tested on: OVCAR-3 ovarian
[44] = tested on: SN12C renal
[45] = tested on: IGROV1 ovarian
[46] = tested on: NCI-H23 lung
[47] = tested on: OVCAR-4 ovarian
[48] = tested on: U251 CNS
[49] = tested on: COLO 205 colon
[50] = tested on: OVCAR-8 ovarian
[51] = tested on: EKVX NSCLC
[52] = tested on: NCI-H322M lung
[53] = tested on: HOP-92 NSCLC
[54] = tested on: SF-295 CNS
[55] = tested on: A549 NSCLC
[56] = tested on: CCRF-CEM leukemia
[57] = tested on: K-562 leukemia
[58] = tested on: NCI/ADR-RES ovarian
[59] = tested on: NCI-H460 lung
[60] = tested on: A498 renal

Molecule Fc1ccc(NC2=NCC(CI)S2)c(F)c1 (stereo not given) has a GI50 [1] of 16.4 µM, a TGI [1] of 47.1 µM and a GI50 [2] greater than 100 µM. For the same molecule, the TGI [2] was greater than 100 µM, the GI50 [3] was greater than 100 µM and the TGI [3] was greater than 100 µM. The GI50 [4] was greater than 100 µM, the TGI [4] was greater than 100 µM and the GI50 [5] was greater than 100 µM. It also gave a TGI [5] greater than 100 µM, a GI50 [6] greater than 100 µM and a TGI [6] greater than 100 µM. For the same molecule, the GI50 [7] was 51.7 µM, the TGI [7] was greater than 100 µM and the GI50 [8] was 50.4 µM. For the same molecule, the TGI [8] was greater than 100 µM, the GI50 [9] was greater than 100 µM and the TGI [9] was greater than 100 µM. The GI50 [10] was greater than 100 µM, the TGI [10] was greater than 100 µM and the GI50 [11] was greater than 100 µM. The TGI [11] was greater than 100 µM, the GI50 [12] was greater than 100 µM and the TGI [12] was greater than 100 µM. The GI50 [13] was greater than 100 µM, the TGI [13] was greater than 100 µM and the GI50 [14] was greater than 100 µM. It also gave a TGI [14] greater than 100 µM, a GI50 [15] greater than 100 µM and a TGI [15] greater than 100 µM. For the same molecule, the GI50 [16] was greater than 100 µM, the TGI [16] was greater than 100 µM and the GI50 [17] was greater than 100 µM. It also gave a TGI [17] greater than 100 µM, a GI50 [18] greater than 100 µM and a TGI [18] greater than 100 µM. It also gave a GI50 [19] greater than 100 µM, a TGI [19] greater than 100 µM and a GI50 [20] of 18.4 µM. For the same molecule, the TGI [20] was 42.3 µM, the GI50 [21] was greater than 100 µM and the TGI [21] was greater than 100 µM. For the same molecule, the GI50 [22] was greater than 100 µM, the TGI [22] was greater than 100 µM and the GI50 [23] was greater than 100 µM. It also gave a TGI [23] greater than 100 µM, a GI50 [24] greater than 100 µM and a TGI [24] greater than 100 µM. For the same molecule, the GI50 [25] was greater than 100 µM, the TGI [25] was greater than 100 µM and the GI50 [26] was greater than 100 µM. The TGI [26] was greater than 100 µM, the GI50 [27] was greater than 100 µM and the TGI [27] was greater than 100 µM. The GI50 [28] was greater than 100 µM, the TGI [28] was greater than 100 µM and the GI50 [29] was greater than 100 µM. It also gave a TGI [29] greater than 100 µM, a GI50 [30] of 28.5 µM and a TGI [30] of 84.8 µM. For the same molecule, the GI50 [31] was greater than 100 µM, the TGI [31] was greater than 100 µM and the GI50 [32] was greater than 100 µM. The TGI [32] was greater than 100 µM, the GI50 [33] was greater than 100 µM and the TGI [33] was greater than 100 µM. It also gave a GI50 [34] greater than 100 µM, a TGI [34] greater than 100 µM and a GI50 [35] greater than 100 µM. For the same molecule, the TGI [35] was greater than 100 µM, the GI50 [36] was greater than 100 µM and the TGI [36] was greater than 100 µM. For the same molecule, the GI50 [37] was greater than 100 µM, the TGI [37] was greater than 100 µM and the GI50 [38] was greater than 100 µM. The TGI [38] was greater than 100 µM, the GI50 [39] was greater than 100 µM and the TGI [39] was greater than 100 µM. The GI50 [40] was greater than 100 µM, the TGI [40] was greater than 100 µM and the GI50 [41] was greater than 100 µM. The TGI [41] was greater than 100 µM, the GI50 [42] was greater than 100 µM and the TGI [42] was greater than 100 µM. It also gave a GI50 [43] greater than 100 µM, a TGI [43] greater than 100 µM and a GI50 [44] greater than 100 µM. The TGI [44] was greater than 100 µM, the GI50 [45] was greater than 100 µM and the TGI [45] was greater than 100 µM. The GI50 [46] was greater than 100 µM, the TGI [46] was greater than 100 µM and the GI50 [47] was greater than 100 µM. For the same molecule, the TGI [47] was greater than 100 µM, the GI50 [48] was greater than 100 µM and the TGI [48] was greater than 100 µM. For the same molecule, the GI50 [49] was greater than 100 µM, the TGI [49] was greater than 100 µM and the GI50 [50] was greater than 100 µM. The TGI [50] was greater than 100 µM, the GI50 [51] was greater than 100 µM and the TGI [51] was greater than 100 µM. For the same molecule, the GI50 [52] was greater than 100 µM, the TGI [52] was greater than 100 µM and the GI50 [53] was 37 µM. For the same molecule, the TGI [53] was greater than 100 µM, the GI50 [54] was greater than 100 µM and the TGI [54] was greater than 100 µM. For the same molecule, the GI50 [55] was greater than 100 µM, the TGI [55] was greater than 100 µM and the GI50 [56] was 24.4 µM. It also gave a TGI [56] of 55.2 µM, a GI50 [57] of 90 µM and a TGI [57] greater than 100 µM. The GI50 [58] was greater than 100 µM and the TGI [58] was greater than 100 µM.
With C[Si](C)(C)OC1CCC(c2cc3ccccc3s2)(N2CCCCC2)CC1 (stereo not given) the TGI [1] was 52.1 µM, the TGI [2] was greater than 100 µM and the TGI [3] was greater than 100 µM. It also gave a TGI [4] greater than 100 µM, a TGI [5] of 76.3 µM and a TGI [6] greater than 100 µM. For the same molecule, the TGI [7] was 25.1 µM, the TGI [8] was greater than 100 µM and the TGI [9] was 71.9 µM. It also gave a TGI [10] of 40.2 µM, a TGI [12] of 92.3 µM and a TGI [13] of 56.1 µM. It also gave a TGI [59] greater than 100 µM, a TGI [60] greater than 100 µM and a TGI [14] greater than 100 µM. It also gave a TGI [15] greater than 100 µM, a TGI [16] greater than 100 µM and a TGI [17] greater than 100 µM. It also gave a TGI [18] greater than 100 µM, a TGI [19] greater than 100 µM and a TGI [20] of 45.1 µM. The TGI [21] was greater than 100 µM, the TGI [22] was greater than 100 µM and the TGI [24] was greater than 100 µM. It also gave a TGI [25] greater than 100 µM, a TGI [26] of 72.8 µM and a TGI [27] of 40.2 µM. The TGI [28] was greater than 100 µM, the TGI [30] was 49.9 µM and the TGI [31] was greater than 100 µM. The TGI [32] was 29.8 µM, the TGI [33] was 97.7 µM and the TGI [34] was greater than 100 µM. For the same molecule, the TGI [35] was greater than 100 µM, the TGI [36] was greater than 100 µM and the TGI [37] was 50.5 µM. For the same molecule, the TGI [39] was greater than 100 µM, the TGI [40] was greater than 100 µM and the TGI [41] was greater than 100 µM. For the same molecule, the TGI [42] was 67.1 µM, the TGI [43] was greater than 100 µM and the TGI [44] was 67.2 µM. For the same molecule, the TGI [45] was greater than 100 µM, the TGI [46] was 61.9 µM and the TGI [47] was greater than 100 µM. The TGI [48] was greater than 100 µM, the TGI [49] was 31.2 µM and the TGI [51] was greater than 100 µM. For the same molecule, the TGI [52] was greater than 100 µM, the TGI [53] was greater than 100 µM and the TGI [54] was greater than 100 µM. For the same molecule, the TGI [55] was greater than 100 µM, the TGI [56] was 48 µM and the TGI [57] was greater than 100 µM.
